Data reported in US8679766B2, “E-cadherin as a biomarker of gastroesophageal reflux disease” (The University of North Carolina at Chapel Hill, priority 2009, dated 2014).

Test system: cleavage of E-cad in rabbit EE
Assay: Acid-activated cleavage of E-cad in Ussing-chambered rabbit EE, W-blot for CTF with C-terminal antibody 4A2C7
Format: cell-based
Settings: caspase 3 inhibitor 50 μM
Procedure: Further, the nature of the damage to E-cad was sought by exposing rabbit EE in U-chambers to luminal HCl, pH 1.1, for 30 min. […] Based on the size of the C-terminal fragment (CTF) of about 25 kD, referred to as CTF2, the site of cleavage was extracellular and close to the cell membrane, and so likely to be due to cleavage by a metalloprotease (MP) or γ-secretase, with cleavage by these two enzymes, often occurring sequentially (MP followed by γ-secretase), a process referred to as RIPping (72, 73).
Models of acid-activated cleavage of E-cad can be generated in two ways: 1) by luminal exposure to HCl, pH 1.1, for 30 min, and 2) by serosal exposure to HCl, pH 2.0, for 5 min. Serosal exposure is the most efficient means of cleavage because it mimics chronic acid exposure, recapitulating what occurs after luminal HCl, pH 1.1, breaks the barrier and acidifies the intercellular space and basolateral cell membranes. Following exposure, EE is washed in Ringer solution, pH 7.4, and placed in a Petri dish containing Dulbecco's Minimum Essential Medium (DMEM) with high glucose (4.5 g/l), supplemented with 2% FCS, 1 mM Na pyruvate, 2 mM/1 L-glutamine, 5 μg/ml insulin, 5 μg/ml transferrin, 0.01 μg/ml hydrocortisone and 0.01 μg/ml cholera toxin. […]

Substance: Z-DVED-FMK
- acid-induced cleavage of E-cad: lack of effect
